Measurements: patent EP4095134A1, “POLYCYCLIC COMPOUNDS FOR THE TREATMENT OF NEUROLOGICAL INDICATIONS” (UCL Business Ltd, priority 2021, dated 2022)

Protein sequences, listed by entry. Tags and fused reporters are not part of them.
UniProt P47900, whole entry: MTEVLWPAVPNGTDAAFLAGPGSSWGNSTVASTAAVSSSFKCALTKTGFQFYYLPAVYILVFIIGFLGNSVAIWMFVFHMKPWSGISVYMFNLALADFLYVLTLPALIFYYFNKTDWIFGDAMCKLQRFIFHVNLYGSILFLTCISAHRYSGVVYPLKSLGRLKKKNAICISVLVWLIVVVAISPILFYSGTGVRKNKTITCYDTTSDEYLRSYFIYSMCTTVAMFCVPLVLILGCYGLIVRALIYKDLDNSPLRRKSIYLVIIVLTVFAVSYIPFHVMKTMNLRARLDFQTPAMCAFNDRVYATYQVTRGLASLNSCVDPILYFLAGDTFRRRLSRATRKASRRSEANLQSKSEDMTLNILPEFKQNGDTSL

Biological target: P2Y1 receptor (Homo sapiens, UniProt P47900)
Test: P2Y1 IP1 accumulation HTRF assay, antagonism of agonist MRS2365 in stably transfected cells
Conditions: single enantiomer; 5nM MRS2365; values rounded to nearest whole number

SMILES | IC50 [nM]
O=C(Nc1ccc(C2(C(F)(F)F)CCO2)cc1)Nc1cccnc1Oc1ccccc1C1(C(F)(F)F)CCO1 (single isomer, unassigned) [S103] | 59
O=C(Nc1ccc(C2(C(F)(F)F)CCO2)cc1)Nc1cccnc1Oc1ccccc1C1(C(F)(F)F)CCO1 (single isomer, unassigned) [S106] | 103
